This is an account of results in PMC4079331 (Journal of Medicinal Chemistry, 2014).

The structures appear in SMILES notation.

Data set [1] can be described thus: Stability in mouse plasma. The following applies: female, BALB/c, mouse plasma (pooled). It is filed as in vitro ADME. An outline of the steps:
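Test compound at 50 μM final (1% DMSO) in pooled plasma from female BALB/c mice or human AB serum. Incubated at 37 °C with gentle agitation. Samples taken at 0, 0.5, 1, 2, 8, 18 and 24 h. Proteins precipitated with CH3CN, vortexed and centrifuged (3000g, 10 min, room temperature); supernatant analysed by LCMS. Run in triplicate.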

Data set [2] can be described thus: Plasma pharmacokinetics in BALB/c mice after a single dose. The following applies: mouse, blood, ip, 2.5 mg/kg. Type of data set: in vivo.

What is called Cmax is the highest concentration seen after dosing. For orientation: AUC means concentration integrated over time. The low end stands for less exposure, the high end for more exposure. Usually half-life stands for the time in which the quantity being followed falls by half. Low values mean rapid decline, high ones slow decline. The compound `CN1C(=O)N[C@H]2[C@@H]3NC(=O)c4ccc(Br)n4[C@@H]3C[C@]21O` [1a, (−)-Agelastatin A] had a recovery at 24 h, 50 μM in data set [1] of 65 to 90%. This compound had a Cmax in data set [2] (female) of 1650 nM. In data set [2], this compound gave an AUC of 6.26 µM·h and a half-life of 1.4 h.
